# Measured values taken from US20090053740A1, “AGGLUTINATION-BASED METHOD FOR FAST DETECTION, ISOLATION AND QUANTIFICATION OF APOPTOTIC CELLS” (CEDARS-SINAI MEDICAL CENTER, priority 2005, published 2009).
# Read-outs that look alike come from different tables or passages of the source.
# B1: PSL: Pisum sativum lectin, α-D-mannose-specific (protein, UniProt P02867 31-217; P02867 218-275, looked up)
# Lectin beta chain: TETTSFLITKFSPDQQNLIFQGDGYTTKEKLTLTKAVKNTVGRALYSSPIHIWDRETGNVANFVTSFTFVINAPNSYNVADGFTFFIAPVDTKPQTGGGYLGVFNSAEYDKTTQTVAVEFDTFYNAAWDPSNRDRHIGIDVNSIKSVNTKSWKLQNGEEANVVIAFNAATNVLTVSLTYPNSLEEEN
# Lectin alpha chain: VTSYTLSDVVSLKDVVPEWVRIGFSATTGAEYAAHEVLSWSFHSELSGTSSSKQAADA
# How the values were obtained:
# [1] = test system: L1210R cells
# [2] = test system: L1210 cells; type: binding, murine
molecule,measurement,setting,value
"N.N.[Cl][Pt][Cl] [cisplatin, cis-diamminodichloroplatinum]",apoptosis induction,[1]; 0.5 μg/ml,did not induce apoptosis
same,apoptosis induction,[1]; 5 μg/ml,induced apoptosis
CN(Cc1cnc2nc(N)nc(N)c2n1)c1ccc(C(=O)N[C@@H](CCC(=O)O)C(=O)O)cc1 [methotrexate],apoptosis induction,[1]; 100 μg/ml,induced apoptosis
B1,densitometric characteristics of lectin binding by apoptotic L1210R cells,[2],resembled the characteristics of the apoptotic L1210S cells
